# Measurements reported in patent US9364474B2, “Method for treatment of neurologic dysfunction” (MedDEV, Inc., priority 2004, dated 2016).
# System: patient diagnosed with chronic schizophrenia
# Conditions: human, in vivo
smiles,measurement,value
Cc1cc2c(s1)Nc1ccccc1N=C2N1CCN(C)CC1 [Zyprexa],side effects of prior medication,extremely lethargic and obese
